The values below come from publication PMC10983004 (Journal of Medicinal Chemistry, 2024).

Read-outs that look alike come from different tables or passages of the source.

The target in experiment [1] is T1, TET2CDΔLCI (Homo sapiens, UniProt Q6N021). Conditions: read-out: KM (2OG) TET2CDΔLCI (reported MS method); cited from earlier work.
The target in experiment [2] is T1, TET2CDΔLCI. Description: biochemical. It is filed as biochemical.
The target of experiment [3] is T1, TET2CDΔLCI. Description: biochemical. It counts as biochemical. Particulars: for inhibition at 100 µM: read-out: AlphaScreen TET2CDΔLCI, % inhibition at 100 μM.

For the compound `O.O.O=C([O-])CCC(=O)C(=O)[O-].[Na+].[Na+]` [2OG, 2-oxoglutarate], the Km (in general, the substrate concentration at which the rate is half of its maximum) in experiment [1] is 15.7 ± 2.8 µM. The “KMapp (2OG) TET2CDΔLCI (SPE-MS)” value in experiment [2] was determined as 3.0 ± 0.6 µM. The “KMapp (2OG) TET2CDΔLCI” value in experiment [3] was 4.9 ± 0.3 µM.

Take `CC(C)c1c(-c2ccccc2)[nH]c2c(C#N)cnn2c1=O` [CPI455]: the “SPE-MS TET2CDΔLCI, % inhibition at 100 μM” value in experiment [2] (at 100 μM, incomplete dose–response curve, N.I. = no inhibition at 100 μM (<20%)) was “N.I”. Further, the “AlphaScreen TET2CDΔLCI, % inhibition at 100 μM” value in experiment [3] is “N.I”.

Take `O=C(O)CNC(=O)c1c(O)c2ccccc2n(Cc2ccccc2)c1=O` [IOX2]: the half-maximal inhibitory concentration (IC50) (usually the point on the concentration scale where inhibition reaches its midpoint) in experiment [2] is 16.6 µM. Also, in experiment [3], the inhibition (usually how much of the control response was suppressed) at 100 µM worked out at 33%.

On to `Cc1nc(C(=O)NCC(=O)O)c(O)c2ccc(Oc3ccccc3)cc12` [Roxadustat], for which the “AlphaScreen TET2CDΔLCI, % inhibition at 100 μM” value in experiment [3] was “N.I”.

In the case of `CC(C)C(=O)NC(c1ccco1)c1ccc2cccnc2c1O` (stereo not shown) [SD70], the inhibition at 100 µM was determined as 58% in experiment [2] (read-out: SPE-MS TET2CDΔLCI, % inhibition at 100 μM) and 54% in experiment [3].
